For two substances, stoichiometry N and Kd results are on record in PMC6172220, “Calcineurin B homologous protein 3 binds with high affinity to the CHP binding domain of the human sodium/proton exchanger NHE1” (Scientific Reports, 2006).

As usually defined, the stoichiometry N is the number of molecules, sites or subunits per partner or assembly. The term Kd denotes the free concentration of one partner at which half of the binding sites on the other are occupied at equilibrium, for simple one-to-one binding.

Assay [1] concerns the target CTD: C-terminal region of the regulatory domain of human NHE1 (residues 633-815), hexa-histidine tagged (human) (UniProt P19634). Nature of the assay: SEC; analytical SEC, Superdex 200 increase 10/300 GL; 20 mM HEPES, 150 mM NaCl, 1 mM TCEP, pH 7.2 with 10 mM CaCl2; CaM:CTD 2:1 (40 uM CaM + 20 uM CTD), CHP3:CTD equimolar; peak fractions checked by SDS-PAGE. For orientation: Size exclusion chromatography separates by hydrodynamic size, large species first.

Assay [2] has as its target NHE1 657-700 (Homo sapiens) (UniProt P19634). The note with it: cited from earlier work.
Assay [3] addresses NHE1 637-656 (Homo sapiens) (UniProt P19634). As to conditions: cited from earlier work.

For the substance “human calmodulin (CaM), His-tagged (from UniProt P0DP23 2-149) (natural protein)”, the stoichiometry N in assay [1] turned out to be 1. With calmodulin (from UniProt P0DP23), the Kd in assay [2] is 350 nM; in assay [3], 20 nM.
